The subject of series [1] is HCV genotype Ib replicon (I389luc-ubi-neo/NS3-3′/ET) in Huh-luc/neo-ET cells. The series is classed as cell-based.
The test system of series [2] is Huh-luc/neo-ET cells. Briefly: Cellular toxicity by XTT dye reduction in Huh-luc/neo-ET cells. The note with it: second drug in combination with miravirsen (SPC3649); 95% confidence interval; median or individual values. In general terms: Tetrazolium assays rely on reduction of a dye to a coloured formazan, in cell work by metabolically active cells.

Where “and” joins values, the source holds several entries; their conditions need not be identical. Equal values may be shown once.

As to “Interferon alpha-2b: Interferon-a2b purchased from R&D Systems”, the “Efficacy, Synergy vol” value in series [1] is 10.75/−38.2; μM^2% and 10.33/0 μM^2%. In addition, in series [1] (second drug in combination with miravirsen (SPC3649), 95% confidence interval, median (≧3 experiments) or individual values), the “Efficacy, Antagonism vol” value is 10.75/−38.2; μM^2% and 10.33/0 μM^2%. Further, the Interaction result in series [1] (second drug in combination with miravirsen (SPC3649), overall) is recorded as “Positive”. In series [2], the “Cytotoxicity, Antagonism vol” value was 0 μM^2% and −8.9 μM^2%; the “Cytotoxicity, Synergy vol” value stood at 0 μM^2%.

The values above are taken from patent US20140113958A1, “HCV Combination Therapy” (priority 2011, published 2014).
